Measurements: PubChem BioAssay (NCATS)
The entries are a selection whose mix differs from that of the whole data set. Records with an inconclusive call do not appear. Active and inactive are the calls of the source. Unless noted, calls come from the whole dose curve; as a rule, active = well fitted curve in either direction with a large enough effect (not every such curve was filed as active); inconclusive = small, poorly fitted or top-dose-only effect, or another doubt; inactive = flat fitted curve, though single readings scatter.

Sequences of proteins named here, by UniProt entry; tags and fusion partners are left off. A change or cut given only in a name is not applied to a line headed by its entry.
UniProt Q07343: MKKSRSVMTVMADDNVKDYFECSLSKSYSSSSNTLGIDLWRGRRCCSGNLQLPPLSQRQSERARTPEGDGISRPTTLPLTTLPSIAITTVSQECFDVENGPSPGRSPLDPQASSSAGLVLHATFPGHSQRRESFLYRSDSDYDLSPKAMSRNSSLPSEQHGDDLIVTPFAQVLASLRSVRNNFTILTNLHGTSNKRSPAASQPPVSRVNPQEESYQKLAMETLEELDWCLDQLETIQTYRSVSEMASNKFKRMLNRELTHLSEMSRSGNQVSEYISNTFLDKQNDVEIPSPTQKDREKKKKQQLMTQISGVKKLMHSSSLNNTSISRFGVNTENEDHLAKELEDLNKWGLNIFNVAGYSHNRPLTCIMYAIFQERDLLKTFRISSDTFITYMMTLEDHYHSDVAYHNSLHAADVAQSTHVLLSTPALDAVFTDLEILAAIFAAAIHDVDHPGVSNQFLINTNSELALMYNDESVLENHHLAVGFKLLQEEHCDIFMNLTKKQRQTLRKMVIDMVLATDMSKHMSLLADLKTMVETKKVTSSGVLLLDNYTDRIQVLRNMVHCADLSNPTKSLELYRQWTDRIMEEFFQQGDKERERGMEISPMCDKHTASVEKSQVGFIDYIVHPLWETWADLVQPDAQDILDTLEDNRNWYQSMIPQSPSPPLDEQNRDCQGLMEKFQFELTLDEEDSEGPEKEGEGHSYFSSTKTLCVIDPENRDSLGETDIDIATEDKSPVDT

What was measured:
[1] = AP1 Signaling Pathway (AID 357); conditions: ME-180 AP-1-bla reporter, EGF-induced, beta-lactamase ratio, 5 h; at 7.69 µM (top of the series) unless noted; note: % is set by controls: 0 for no effect and ±100 for the full control effect
How it was run: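 ME-180 cells with beta-lactamase reporter under AP-1 response element, stimulated with EC50 EGF; compounds tested in titration series, 5 h at 37 °C. CCF4 substrate added 2.5 h at room temperature; 460/530 nm emission ratio gave %activity and AC50.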

[2] = NFAT Signaling Pathway (AID 444); conditions: Jurkat NFAT-bla M1, carbachol, beta-lactamase ratio, 5 h; at 7.69 µM (top of the series) unless noted;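 note: carbachol stimulus at about its EC50 of 1 µM final; % is set by controls: 0 for no effect and ±100 for the full control effect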
[3] = Stat Signaling Pathway (AID 446); conditions: ME-180 (cervical carcinoma) SIE beta-lactamase reporter, IL-6 stimulated, 5 h; at 7.69 µM (top of the series) unless noted;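 note: ME-180 cervical cancer cells given 40 pM IL-6 alongside compound; SIE-controlled beta-lactamase reporter measured as 460/530 nm FRET emission ratio; % is set by controls: 0 for no effect and ±100 for the full control effect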
How it was run: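 IL-6/STAT signaling read in ME-180 cells via an SIE beta-lactamase reporter. Stimulus was 40 pM IL-6 (its AC50) for 5 hrs, so both activation and inhibition register.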

[4] = target: Mitogen-activated protein kinase 10 (Mus musculus) (UniProt Q61831); test: JNK3 AlphaScreen Assay (AID 530); conditions: JNK3 lysate, c-Jun phosphorylation; at 11.4 µM (top of the series) unless noted;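 note: kinase came from lysate of stimulated human HepG2 cells; signal reports phosphorylation of biotinylated GST-cJun 1-79 at Ser73 with 10 µM ATP; % is set by controls: 0 for no effect and ±100 for the full control effect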
How it was run: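 Room-temperature AlphaScreen kinase assay; pre-activated HepG2 lysate as JNK3 source, biotin-GST-cJun(1-79) substrate, 10 uM ATP, compound 15 min preincubation.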

[5] = target: 3',5'-cyclic-AMP phosphodiesterase 4B (Homo sapiens) (UniProt Q07343); test: qHTS Assay for Inhibitors of PDE-IV (AID 607; active = well fitted activation curve with a large enough effect in the main read-out, with a control signal flat, not every such curve was filed as active; note: % of control where 0% means no effect); conditions: HEK293 ACTOne CNG channel cells, membrane potential fluorescence; at 22.9 µM (top of the series)
How it was run: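 Live HEK293 cells with a modified cyclic nucleotide-gated (CNG) channel report intracellular cAMP via membrane-potential dye fluorescence (ex 535/em 590 nm). Endogenous PDE-IV was targeted. Compounds were tested at up to 22.9 uM final; RO 20-1724 100 uM served as control.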

O=[As](O)(O)c1ccc([As](=O)(O)O)cc1
inactive: activity change, negative = inhibition [1] 4.37% | activity change, negative = inhibition [2] 11.9% | activity, negative = inhibition [3] 0.488% | activity change, negative = inhibition [4] 2.36% | activation (PDE inhibition) [5] -7.38%
